{"source": "patent US20080057071A1", "about": "“Use Of Hedgehog Pathway Inhibitors In Small-Cell Lung Cancer” (priority 2003, published 2008)", "key": {"NCI-H157 NSCLC cells": {"system": "NCI-H157 NSCLC cells", "assay": "Cell growth of NCI-H157 NSCLC cells (MTT assay)", "format": "cell-based, human", "settings": "5 days, FIG. 3c", "method": "(§1) Cyclopamine was obtained from Toronto Research Chemicals. […] MTT assays were performed as described (Sriuranpong (2002), supra)."}, "NCI-H1618 xenografts": {"system": "NCI-H1618 xenografts", "settings": "NCI-H1618 SCLC; nude mice; subcutaneous 25 mg^−1 kg^−day^−1; data not shown"}, "[1]": {"system": "HCT-116 colon cancer xenografts", "settings": "nude mice, subcutaneous 25 mg^−1 kg^−day^−1, data not shown"}, "NCI-H249 xenografts": {"system": "NCI-H249 xenografts", "settings": "NCI-H249 SCLC; nude mice; subcutaneous 25 mg^−1 kg^−day^−1; 10 days; FIG. 4c"}, "NCI-H417 xenografts": {"system": "NCI-H417 xenografts", "settings": "NCI-H417 SCLC; nude mice; subcutaneous 25 mg^−1 kg^−day^−1; data not shown"}, "nine cancer cell lines": {"system": "nine cancer cell lines", "settings": "concentrations up to 10 μM, FIG. 5b", "method": "MTT assays were performed as described (Sriuranpong (2002), supra)."}, "NCI-H249 SCLC cells": {"system": "NCI-H249 SCLC cells", "assay": "Cell growth of NCI-H249 SCLC cells (MTT assay)", "format": "cell-based, human", "settings": "5 days, FIG. 3b", "method": "as §1"}, "A549 NSCLC cells": {"system": "A549 NSCLC cells", "settings": "nude mice, subcutaneous 25 mg^−1 kg^−day^−1, FIG. 4d"}}, "data": [{"smiles": "CC1=C2C[C@H]3[C@@H](CC=C4C[C@@H](O)CC[C@@]43C)[C@@H]2CC[C@]12O[C@@H]1C[C@H](C)CN[C@H]1[C@H]2C", "note": "[cyclopamine]", "values": [{"measurement": "cell growth after compound treatment", "setting": "NCI-H157 NSCLC cells", "value": "None of KAAD-cyclopamine, cyclopamine or tomatidine was able to affect growth"}, {"measurement": "xenograft tumor growth", "setting": "NCI-H1618 xenografts", "value": "Growth inhibition"}, {"measurement": "xenograft tumor growth", "setting": "[1]", "value": "No effect"}, {"measurement": "xenograft tumor growth", "setting": "NCI-H249 xenografts", "value": "Growth inhibition"}, {"measurement": "xenograft tumor growth", "setting": "NCI-H417 xenografts", "value": "Growth inhibition"}, {"measurement": "growth response of cancer cell lines", "setting": "nine cancer cell lines", "value": "growth inhibition only in SCLC cells that expressed both Shh and its transcriptional effector GLI-1"}, {"measurement": "cell growth after compound treatment", "setting": "NCI-H249 SCLC cells", "value": "significant growth inhibition"}, {"measurement": "xenograft tumor growth", "setting": "A549 NSCLC cells", "value": "No effect"}]}]}
